The text below walks through data of US10208089B2, “Modulation of complement activity” (priority 2014, dated 2019).

Chains of the proteins cited; added tags and fusions are not shown. Residues count along the entry.
UniProt P01031, 19-1676: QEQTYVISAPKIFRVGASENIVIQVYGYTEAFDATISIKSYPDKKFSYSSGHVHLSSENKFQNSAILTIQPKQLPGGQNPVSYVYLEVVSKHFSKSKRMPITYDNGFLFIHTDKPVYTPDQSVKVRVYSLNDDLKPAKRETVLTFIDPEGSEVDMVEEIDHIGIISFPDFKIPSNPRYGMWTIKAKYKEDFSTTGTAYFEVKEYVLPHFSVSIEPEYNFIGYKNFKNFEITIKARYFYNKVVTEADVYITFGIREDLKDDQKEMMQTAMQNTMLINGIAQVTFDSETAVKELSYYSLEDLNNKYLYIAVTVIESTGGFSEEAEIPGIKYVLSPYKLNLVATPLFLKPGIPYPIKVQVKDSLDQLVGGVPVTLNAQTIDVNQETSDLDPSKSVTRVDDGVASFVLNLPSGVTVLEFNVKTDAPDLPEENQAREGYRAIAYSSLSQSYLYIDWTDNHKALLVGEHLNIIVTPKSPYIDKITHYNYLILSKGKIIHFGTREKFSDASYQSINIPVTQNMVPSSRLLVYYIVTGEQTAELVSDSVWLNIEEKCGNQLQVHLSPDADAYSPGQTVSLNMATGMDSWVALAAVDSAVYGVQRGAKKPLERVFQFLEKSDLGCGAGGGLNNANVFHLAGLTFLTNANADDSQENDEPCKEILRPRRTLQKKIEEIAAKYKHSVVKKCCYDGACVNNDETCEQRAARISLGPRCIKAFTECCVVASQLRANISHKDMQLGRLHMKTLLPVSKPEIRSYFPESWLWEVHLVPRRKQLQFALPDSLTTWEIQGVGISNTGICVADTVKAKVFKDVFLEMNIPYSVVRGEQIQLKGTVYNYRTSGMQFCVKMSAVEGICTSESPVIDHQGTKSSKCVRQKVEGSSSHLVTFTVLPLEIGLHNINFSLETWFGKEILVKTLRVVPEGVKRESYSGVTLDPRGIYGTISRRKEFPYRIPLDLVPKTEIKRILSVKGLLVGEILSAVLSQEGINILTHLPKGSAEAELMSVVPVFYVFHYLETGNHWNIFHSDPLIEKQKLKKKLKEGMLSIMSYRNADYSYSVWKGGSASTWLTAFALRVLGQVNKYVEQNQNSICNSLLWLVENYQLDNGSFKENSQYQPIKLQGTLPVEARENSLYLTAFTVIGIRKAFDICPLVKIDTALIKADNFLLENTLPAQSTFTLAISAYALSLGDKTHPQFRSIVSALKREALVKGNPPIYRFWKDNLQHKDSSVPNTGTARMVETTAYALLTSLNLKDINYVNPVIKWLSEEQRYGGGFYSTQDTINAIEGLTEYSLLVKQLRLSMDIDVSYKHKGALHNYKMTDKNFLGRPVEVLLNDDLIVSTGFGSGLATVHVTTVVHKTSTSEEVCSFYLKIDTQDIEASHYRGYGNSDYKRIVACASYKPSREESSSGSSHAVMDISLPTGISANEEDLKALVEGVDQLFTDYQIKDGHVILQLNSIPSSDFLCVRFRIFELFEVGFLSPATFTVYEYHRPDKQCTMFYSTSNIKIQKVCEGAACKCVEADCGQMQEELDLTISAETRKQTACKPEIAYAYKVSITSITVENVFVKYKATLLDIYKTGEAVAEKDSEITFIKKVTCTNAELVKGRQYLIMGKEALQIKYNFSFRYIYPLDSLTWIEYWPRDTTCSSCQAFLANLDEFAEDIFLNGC

Each structure is given as a SMILES string.

The test system of one series is C5a. The experiment in a line: C5a EIA on supernatant from human RBC hemolysis assay. The series is classed as biochemical. Conditions: hemolysis assay supernatant diluted 1:50; read-out: IC50, inhibition of formation of C5a. On the procedure: Levels of C5a correlate with complement activity and are therefore an indicator of the ability of the compounds tested to inhibit complement activity. Supernatant from the hemolysis assay was diluted 1:50 and assayed for C5a levels. […] As used herein, the term “IC50” refers to the half maximal inhibitory concentration, a value used to indicate the amount of the inhibitor needed to reduce a given reaction or process by half.
Inhibition of the production of C5a and the membrane attack complex (MAC) were measured by MicroVue EIA kits (Quidel Corporation, San Diego, Calif.).

The target of another series is C5 (Homo sapiens, UniProt P01031). The experiment in a line: Human hemolysis assay (RBC lysis assay using complete human sera). Set-up: with complete human sera (Complement Technology, Tyler Tex.) and polypeptides; tissue Complement Technology, Tyler Tex; host or cells: complete human serum. It is filed as cell-based.
Series [1] is described as follows: Pharmacokinetic studies in rat (IV and SC). Conditions: male Sprague-Dawley rats, R3183 versus unlipidated R3176. On the procedure:
Left: Male Sprague-Dawley rats (n=3) were injected intravenously at a single 2 mg/kg dose. Blood samples were collected at indicated time points, processed into plasma, and analyzed for the indicated compound by LC-MS. […] […] Blood samples were collected at indicated time points, processed into plasma, and analyzed for the indicated compound by LC-MS.
Blood samples were collected at indicated time points, processed into plasma, and analyzed for the indicated compound by LC-MS. […] Blood samples were collected at indicated time points, processed into plasma, and analyzed for the indicated compound by LC-MS.

For the compound `CCC[C@H](NC(=O)[C@@H](NC(=O)[C@@H]1CCCN1C(=O)[C@H](Cc1ccc(O)cc1)NC(=O)[C@H](CCC(=O)O)NC(=O)[C@H](Cc1c[nH]c2ncccc12)NC(=O)[C@H](Cc1ccc(O)cc1)NC(=O)[C@@H](NC(=O)[C@H](CC(N)=O)NC(=O)[C@H](CCC(=O)O)NC(=O)[C@H](Cc1ccc(O)cc1)NC(=O)[C@H](CS)NC(=O)[C@H](CCC)NC(C)=O)C(C)(C)C)c1ccccc1)C(N)=O` [Compound R3002, Ac-Nvl-C-Y-E-N-Tbg-Y-azaTrp-E-Y-P-Phg-Nvl-NH2], in the series on C5a, the IC50 worked out at 5.4 nM.
`CC(=O)N[C@H]1CSCc2cccc(c2)CSC[C@@H](C(=O)N[C@@H](CC(=O)O)C(=O)N[C@H](C(=O)N[C@@H](Cc2ccc(O)cc2)C(=O)N[C@@H](Cc2c[nH]c3ncccc23)C(=O)N[C@@H](CCC(=O)O)C(=O)N[C@@H](Cc2ccc(O)cc2)C(=O)N2CCC[C@H]2C(N)=O)C(C)C)NC(=O)[C@H](Cc2ccccc2)NC(=O)[C@H](CCCNC(=N)N)NC(=O)[C@H](CCC(=O)O)NC(=O)[C@H](C(C)C)NC1=O` [Compound R3142, [mXylyl(1,6)]Ac-C-V-E-R-F-C-D-V-Y-azaTtp-E-Y-P-NH2] yielded a half-maximal inhibitory concentration (IC50) on C5 of 44.6 nM.
`CCCCCCCCCCCCCCCC(=O)NCCCC[C@H](NC(=O)[C@@H](NC(=O)[C@@H]1CCCN1C(=O)[C@H](Cc1ccc(O)cc1)NC(=O)[C@H](CCC(=O)O)NC(=O)[C@H](Cc1c[nH]c2ncccc12)NC(=O)[C@H](Cc1ccc(O)cc1)NC(=O)[C@@H](NC(=O)[C@H](CC(=O)O)N(C)C(=O)[C@@H]1CC(=O)NCCCC[C@H](NC(C)=O)C(=O)N[C@@H](C(C)C)C(=O)N[C@@H](CCC(=O)O)C(=O)N[C@@H](CCCNC(=N)N)C(=O)N[C@@H](Cc2ccccc2)C(=O)N1)C(C)(C)C)C1CCCCC1)C(=O)O` [Compound R3183, [cyclo(1,6)]Ac-K-V-E-R-F-D-(N-Me)D-Tbg-Y-azaTrp-E-Y-P-Chg-(Lys-C16)]: the results for the “increase in exposure (AUC) by lipidation” value in series [1] (intravenous 2 mg/kg) and in series [1] (subcutaneous 15 mg/kg) were 2.1 fold and 2.7 fold, respectively.
